Columns and labels:
Experiment in all cases: DSF 100 kinase selectivity screen;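 also: compound tested at 20 µM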
Type in all cases: binding
[1] = target: ~100 representative kinases (Homo sapiens, UniProt O95747); details: protein OSR1; average of three replicates
[2] = target: ~100 representative kinases (Homo sapiens, UniProt Q9UEE5); details: Protein STK17A; DSF; average of three replicates
[3] = target: ~100 representative kinases (Homo sapiens, UniProt P19784); details: Protein CK2A2; average of three replicates
[4] = target: ~100 representative kinases (Homo sapiens, UniProt P49674); details: Protein CSNK1E; average of three replicates
[5] = target: ~100 representative kinases (Homo sapiens, UniProt Q9H4A3); details: Protein WNK1; DSF; average of three replicates
[6] = target: ~100 representative kinases (Homo sapiens, UniProt Q9P289); details: protein MST4; average of three replicates
[7] = target: ~100 representative kinases (Homo sapiens, UniProt O14976); details: protein GAK; average of three replicates
[8] = target: ~100 representative kinases (Homo sapiens, UniProt Q9Y6E0); details: protein MST3; average of three replicates
[9] = target: ~100 representative kinases (Homo sapiens, UniProt Q2M2I8); details: Protein AAK1; average of three replicates
[10] = target: ~100 representative kinases (Homo sapiens, UniProt P51955); details: protein NEK2; average of three replicates
[11] = target: ~100 representative kinases (Homo sapiens, UniProt P24941); details: Protein CDK2; average of three replicates
[12] = target: ~100 representative kinases (Homo sapiens, UniProt Q92630); details: Protein DYRK2; average of three replicates
[13] = target: ~100 representative kinases (Homo sapiens, UniProt O75385); details: Protein ULK1; DSF; average of three replicates
[14] = target: ~100 representative kinases (Homo sapiens, UniProt P29317); details: Protein EPHA2; average of three replicates
[15] = target: ~100 representative kinases (Homo sapiens, UniProt O00444); details: protein PLK4; average of three replicates
[16] = target: ~100 representative kinases (Homo sapiens, UniProt Q99683); details: protein MAP3K5; average of three replicates
[17] = target: ~100 representative kinases (Homo sapiens, UniProt Q8TD08); details: protein MAPK15; average of three replicates
[18] = target: ~100 representative kinases (Homo sapiens, UniProt Q02750); details: protein MAP2K1; average of three replicates
[19] = target: ~100 representative kinases (Homo sapiens, UniProt P45985); details: protein MAP2K4; average of three replicates
[20] = target: ~100 representative kinases (Homo sapiens, UniProt Q16566); details: Protein CAMK4; average of three replicates
[21] = target: ~100 representative kinases (Homo sapiens, UniProt Q96SB4); details: Protein SRPK1; DSF; average of three replicates
[22] = target: ~100 representative kinases (Homo sapiens, UniProt P11362); details: protein FGFR1; average of three replicates
[23] = target: ~100 representative kinases (Homo sapiens, UniProt Q9H2G2); details: Protein SLK; DSF; average of three replicates
[24] = target: ~100 representative kinases (Homo sapiens, UniProt Q8TF76); details: protein GSG2; average of three replicates
[25] = target: ~100 representative kinases (Homo sapiens, UniProt P21675); details: Protein TAF1; DSF; average of three replicates
[26] = target: ~100 representative kinases (Homo sapiens, UniProt P17948); details: protein FLT1; average of three replicates
[27] = target: ~100 representative kinases (Homo sapiens, UniProt Q6PHR2); details: Protein ULK3; DSF; average of three replicates
[28] = target: ~100 representative kinases (Homo sapiens, UniProt Q09013); details: Protein DMPK1; average of three replicates
[29] = target: ~100 representative kinases (Homo sapiens, UniProt P52564); details: protein MAP2K6; average of three replicates
[30] = target: ~100 representative kinases (Homo sapiens, UniProt P21802); details: protein FGFR2; average of three replicates
[31] = target: ~100 representative kinases (Homo sapiens, UniProt Q96L34); details: protein MARK4; average of three replicates
[32] = target: ~100 representative kinases (Homo sapiens, UniProt Q12866); details: protein MERTK; average of three replicates
[33] = target: ~100 representative kinases (Homo sapiens, UniProt Q96PY6); details: protein NEK1; average of three replicates
[34] = target: ~100 representative kinases (Homo sapiens, UniProt P55201); details: Protein BRPF1; average of three replicates
[35] = target: ~100 representative kinases (Homo sapiens, UniProt O94768); details: Protein STK17B; DSF; average of three replicates

Chains of the proteins cited; added tags and fusions are not shown. Residues count along the entry.
UniProt P49674, whole entry: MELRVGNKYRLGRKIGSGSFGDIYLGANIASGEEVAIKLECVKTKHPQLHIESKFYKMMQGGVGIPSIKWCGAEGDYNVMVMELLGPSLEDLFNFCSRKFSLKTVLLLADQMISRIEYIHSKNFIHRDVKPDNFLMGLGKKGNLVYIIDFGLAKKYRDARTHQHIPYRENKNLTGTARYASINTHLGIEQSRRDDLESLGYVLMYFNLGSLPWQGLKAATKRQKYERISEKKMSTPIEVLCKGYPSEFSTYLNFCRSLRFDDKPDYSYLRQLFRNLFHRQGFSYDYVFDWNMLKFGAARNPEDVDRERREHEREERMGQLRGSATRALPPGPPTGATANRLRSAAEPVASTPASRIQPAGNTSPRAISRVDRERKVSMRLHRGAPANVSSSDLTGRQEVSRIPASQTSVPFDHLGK
UniProt Q9H4A3, whole entry: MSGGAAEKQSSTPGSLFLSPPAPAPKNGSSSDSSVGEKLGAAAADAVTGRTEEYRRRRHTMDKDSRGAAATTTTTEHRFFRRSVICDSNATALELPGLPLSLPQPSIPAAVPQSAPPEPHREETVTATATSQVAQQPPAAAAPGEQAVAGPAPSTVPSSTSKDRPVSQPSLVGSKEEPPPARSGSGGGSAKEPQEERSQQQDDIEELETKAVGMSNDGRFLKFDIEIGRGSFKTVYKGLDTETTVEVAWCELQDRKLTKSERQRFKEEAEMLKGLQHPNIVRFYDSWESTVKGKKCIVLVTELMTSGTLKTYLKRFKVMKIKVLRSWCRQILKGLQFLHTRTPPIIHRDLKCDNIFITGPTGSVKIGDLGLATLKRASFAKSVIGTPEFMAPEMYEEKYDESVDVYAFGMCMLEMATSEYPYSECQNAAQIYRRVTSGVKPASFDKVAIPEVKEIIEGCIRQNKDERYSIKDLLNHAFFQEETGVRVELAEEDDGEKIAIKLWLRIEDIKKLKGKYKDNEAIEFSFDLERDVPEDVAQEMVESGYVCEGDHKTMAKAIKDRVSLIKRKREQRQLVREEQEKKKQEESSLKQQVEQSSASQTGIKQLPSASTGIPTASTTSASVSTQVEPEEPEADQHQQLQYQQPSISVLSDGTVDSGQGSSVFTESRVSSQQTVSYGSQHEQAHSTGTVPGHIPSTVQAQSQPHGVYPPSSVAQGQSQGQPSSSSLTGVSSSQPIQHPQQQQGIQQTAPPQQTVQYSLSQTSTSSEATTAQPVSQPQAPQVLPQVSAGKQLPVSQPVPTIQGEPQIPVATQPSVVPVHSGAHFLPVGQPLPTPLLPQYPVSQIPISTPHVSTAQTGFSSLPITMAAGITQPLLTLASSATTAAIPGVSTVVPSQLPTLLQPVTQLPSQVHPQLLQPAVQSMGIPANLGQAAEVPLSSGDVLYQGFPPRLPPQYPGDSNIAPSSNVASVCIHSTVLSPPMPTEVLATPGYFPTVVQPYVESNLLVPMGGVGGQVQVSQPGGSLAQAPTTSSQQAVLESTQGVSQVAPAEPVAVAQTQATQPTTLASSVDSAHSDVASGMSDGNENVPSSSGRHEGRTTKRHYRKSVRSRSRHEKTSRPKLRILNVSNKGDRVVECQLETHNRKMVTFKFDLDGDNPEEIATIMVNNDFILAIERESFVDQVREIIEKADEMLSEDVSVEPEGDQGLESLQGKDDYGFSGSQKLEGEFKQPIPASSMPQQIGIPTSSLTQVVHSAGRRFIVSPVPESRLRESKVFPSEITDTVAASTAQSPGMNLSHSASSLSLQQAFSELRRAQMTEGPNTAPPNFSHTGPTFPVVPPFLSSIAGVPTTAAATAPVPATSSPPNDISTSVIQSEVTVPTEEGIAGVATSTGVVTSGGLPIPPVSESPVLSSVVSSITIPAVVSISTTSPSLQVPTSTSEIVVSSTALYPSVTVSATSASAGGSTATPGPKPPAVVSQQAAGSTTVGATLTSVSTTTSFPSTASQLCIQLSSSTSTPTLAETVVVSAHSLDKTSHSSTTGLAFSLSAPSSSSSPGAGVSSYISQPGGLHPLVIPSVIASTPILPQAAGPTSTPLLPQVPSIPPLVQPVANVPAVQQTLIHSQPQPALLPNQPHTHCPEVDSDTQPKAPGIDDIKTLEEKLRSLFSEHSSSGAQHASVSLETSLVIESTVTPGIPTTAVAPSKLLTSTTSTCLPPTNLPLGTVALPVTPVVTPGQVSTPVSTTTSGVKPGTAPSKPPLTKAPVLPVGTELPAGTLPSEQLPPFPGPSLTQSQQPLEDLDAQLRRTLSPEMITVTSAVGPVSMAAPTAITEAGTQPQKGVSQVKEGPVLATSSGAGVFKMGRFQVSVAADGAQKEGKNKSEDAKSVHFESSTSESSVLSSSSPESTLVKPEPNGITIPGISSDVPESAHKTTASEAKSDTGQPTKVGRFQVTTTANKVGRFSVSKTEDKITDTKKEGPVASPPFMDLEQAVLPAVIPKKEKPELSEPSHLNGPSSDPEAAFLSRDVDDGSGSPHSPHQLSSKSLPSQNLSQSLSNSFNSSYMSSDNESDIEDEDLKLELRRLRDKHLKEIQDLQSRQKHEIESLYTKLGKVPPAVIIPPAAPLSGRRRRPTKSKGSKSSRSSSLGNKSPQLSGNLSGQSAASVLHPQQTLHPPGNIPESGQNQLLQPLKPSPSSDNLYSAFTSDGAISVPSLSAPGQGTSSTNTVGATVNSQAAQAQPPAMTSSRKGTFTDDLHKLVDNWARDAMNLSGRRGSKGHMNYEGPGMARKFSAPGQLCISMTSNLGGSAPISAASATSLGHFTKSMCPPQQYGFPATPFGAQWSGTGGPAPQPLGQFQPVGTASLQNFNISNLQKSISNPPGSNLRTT
UniProt P29317, 24-976 limits assumed: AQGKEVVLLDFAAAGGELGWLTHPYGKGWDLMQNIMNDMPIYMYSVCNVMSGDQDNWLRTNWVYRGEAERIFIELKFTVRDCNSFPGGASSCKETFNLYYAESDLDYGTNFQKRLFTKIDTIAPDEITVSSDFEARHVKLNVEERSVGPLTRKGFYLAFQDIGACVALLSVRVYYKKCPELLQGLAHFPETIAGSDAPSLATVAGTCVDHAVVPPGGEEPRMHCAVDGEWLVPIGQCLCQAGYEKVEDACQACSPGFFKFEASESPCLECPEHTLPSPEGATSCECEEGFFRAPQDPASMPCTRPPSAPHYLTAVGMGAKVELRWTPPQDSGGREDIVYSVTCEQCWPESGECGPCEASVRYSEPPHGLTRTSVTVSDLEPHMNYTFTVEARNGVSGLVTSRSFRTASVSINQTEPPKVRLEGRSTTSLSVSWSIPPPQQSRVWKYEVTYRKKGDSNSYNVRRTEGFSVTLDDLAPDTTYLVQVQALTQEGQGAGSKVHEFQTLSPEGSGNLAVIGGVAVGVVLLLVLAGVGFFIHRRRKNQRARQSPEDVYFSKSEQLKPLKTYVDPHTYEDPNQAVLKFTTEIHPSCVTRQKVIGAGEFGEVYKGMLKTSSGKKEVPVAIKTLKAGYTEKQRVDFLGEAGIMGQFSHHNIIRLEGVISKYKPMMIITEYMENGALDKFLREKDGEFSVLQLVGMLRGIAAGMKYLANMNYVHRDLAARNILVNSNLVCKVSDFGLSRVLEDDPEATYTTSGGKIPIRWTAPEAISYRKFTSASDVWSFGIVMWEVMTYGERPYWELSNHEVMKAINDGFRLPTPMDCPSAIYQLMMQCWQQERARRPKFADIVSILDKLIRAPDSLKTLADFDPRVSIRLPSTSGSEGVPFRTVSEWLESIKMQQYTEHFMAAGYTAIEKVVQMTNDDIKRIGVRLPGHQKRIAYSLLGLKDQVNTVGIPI
UniProt P45985, whole entry: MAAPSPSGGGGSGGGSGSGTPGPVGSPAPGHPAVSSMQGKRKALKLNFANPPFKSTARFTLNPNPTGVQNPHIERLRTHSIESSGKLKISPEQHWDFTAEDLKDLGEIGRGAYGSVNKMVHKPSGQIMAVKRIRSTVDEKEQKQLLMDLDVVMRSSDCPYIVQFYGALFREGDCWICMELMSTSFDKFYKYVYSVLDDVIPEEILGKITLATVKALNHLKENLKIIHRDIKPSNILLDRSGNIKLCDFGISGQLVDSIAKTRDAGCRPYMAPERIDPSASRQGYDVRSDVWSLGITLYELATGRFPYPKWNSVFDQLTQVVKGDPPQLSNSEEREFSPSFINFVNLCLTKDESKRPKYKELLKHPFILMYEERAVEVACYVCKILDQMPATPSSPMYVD
UniProt P11362, 22-822 limits assumed: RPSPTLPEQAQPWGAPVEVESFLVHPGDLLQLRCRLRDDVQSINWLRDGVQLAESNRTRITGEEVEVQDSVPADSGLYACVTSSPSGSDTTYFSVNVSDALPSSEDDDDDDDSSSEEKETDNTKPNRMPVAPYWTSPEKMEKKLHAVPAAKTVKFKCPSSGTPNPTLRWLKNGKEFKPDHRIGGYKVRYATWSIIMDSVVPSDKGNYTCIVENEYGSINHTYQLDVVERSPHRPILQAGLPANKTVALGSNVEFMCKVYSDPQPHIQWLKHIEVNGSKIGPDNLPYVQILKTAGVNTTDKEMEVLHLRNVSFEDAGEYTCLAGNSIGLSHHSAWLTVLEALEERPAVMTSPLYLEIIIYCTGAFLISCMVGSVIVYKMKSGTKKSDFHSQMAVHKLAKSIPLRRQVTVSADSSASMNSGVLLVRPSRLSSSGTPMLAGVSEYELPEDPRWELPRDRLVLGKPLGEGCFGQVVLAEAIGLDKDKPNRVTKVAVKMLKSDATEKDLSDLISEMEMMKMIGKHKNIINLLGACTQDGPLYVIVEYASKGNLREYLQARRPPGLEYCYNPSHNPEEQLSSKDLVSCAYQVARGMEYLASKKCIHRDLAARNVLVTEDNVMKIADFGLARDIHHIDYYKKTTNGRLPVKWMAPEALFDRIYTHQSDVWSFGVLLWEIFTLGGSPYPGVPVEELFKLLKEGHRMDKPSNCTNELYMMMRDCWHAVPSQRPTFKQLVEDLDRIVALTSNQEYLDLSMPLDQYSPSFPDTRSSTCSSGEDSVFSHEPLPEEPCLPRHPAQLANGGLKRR
UniProt Q6PHR2, whole entry: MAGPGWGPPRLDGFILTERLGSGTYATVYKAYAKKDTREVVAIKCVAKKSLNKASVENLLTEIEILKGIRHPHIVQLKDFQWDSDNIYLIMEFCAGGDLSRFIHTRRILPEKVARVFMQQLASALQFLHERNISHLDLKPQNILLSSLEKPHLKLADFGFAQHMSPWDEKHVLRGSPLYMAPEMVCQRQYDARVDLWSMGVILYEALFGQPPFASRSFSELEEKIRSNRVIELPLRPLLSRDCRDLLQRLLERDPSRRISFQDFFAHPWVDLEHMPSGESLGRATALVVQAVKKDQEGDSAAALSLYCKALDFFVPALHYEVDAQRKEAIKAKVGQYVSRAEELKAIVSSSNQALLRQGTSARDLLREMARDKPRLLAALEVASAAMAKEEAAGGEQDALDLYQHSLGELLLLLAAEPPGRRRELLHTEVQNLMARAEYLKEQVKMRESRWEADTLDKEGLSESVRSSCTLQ
UniProt Q09013, whole entry: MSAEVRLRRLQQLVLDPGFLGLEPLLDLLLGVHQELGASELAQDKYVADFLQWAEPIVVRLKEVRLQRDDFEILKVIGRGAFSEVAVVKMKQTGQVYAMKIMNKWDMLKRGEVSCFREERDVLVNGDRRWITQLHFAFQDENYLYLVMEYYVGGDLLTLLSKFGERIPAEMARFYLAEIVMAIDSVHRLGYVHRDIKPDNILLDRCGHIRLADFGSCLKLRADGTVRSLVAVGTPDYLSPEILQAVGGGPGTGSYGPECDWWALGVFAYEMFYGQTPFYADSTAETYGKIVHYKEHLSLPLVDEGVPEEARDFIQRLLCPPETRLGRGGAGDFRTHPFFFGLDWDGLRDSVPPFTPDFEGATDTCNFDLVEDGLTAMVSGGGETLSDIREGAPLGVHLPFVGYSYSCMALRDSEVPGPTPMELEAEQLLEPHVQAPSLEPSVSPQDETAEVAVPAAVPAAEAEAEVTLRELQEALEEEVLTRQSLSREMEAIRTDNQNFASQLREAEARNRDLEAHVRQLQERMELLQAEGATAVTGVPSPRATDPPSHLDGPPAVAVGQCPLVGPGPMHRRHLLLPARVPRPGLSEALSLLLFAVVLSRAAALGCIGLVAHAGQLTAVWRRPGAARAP
UniProt P52564, whole entry: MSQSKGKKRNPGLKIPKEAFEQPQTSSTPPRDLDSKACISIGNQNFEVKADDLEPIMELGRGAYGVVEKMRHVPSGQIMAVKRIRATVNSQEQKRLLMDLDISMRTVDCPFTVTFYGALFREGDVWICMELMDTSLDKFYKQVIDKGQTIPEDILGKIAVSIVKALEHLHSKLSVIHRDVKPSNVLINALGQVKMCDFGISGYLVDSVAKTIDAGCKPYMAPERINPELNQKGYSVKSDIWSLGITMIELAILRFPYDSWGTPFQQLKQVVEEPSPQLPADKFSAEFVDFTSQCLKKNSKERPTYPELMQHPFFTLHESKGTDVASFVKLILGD

With `Cc1ccc(C(=O)Nc2ccc(CN3CCN(C)CC3)c(C(F)(F)F)c2)cc1C#Cc1ccc2cn[nH]c2c1` the dTm [1] was 2.19 K, the dTm [2] was -0.32 K and the dTm [3] was -4.57 K. For the same compound, the dTm [4] was 2.26 K, the dTm [5] was 1.03 K and the dTm [6] was -5.25 K. It also gave a dTm [7] of 3.16 K, a dTm [8] of 10.92 K and a dTm [9] of 0.99 K. It also gave a dTm [10] of -1.48 K, a dTm [11] of -0.16 K and a dTm [12] of 2.22 K. It also gave a dTm [13] of 10.75 K, a dTm [14] of 9.80 K and a dTm [15] of 7.72 K. For the same compound, the dTm [16] was 1.15 K, the dTm [17] was 16.93 K and the dTm [18] was 1.01 K. The dTm [19] was 2.17 K, the dTm [20] was -2.04 K and the dTm [21] was 9.31 K. It also gave a dTm [22] of 5.88 K, a dTm [23] of 8.39 K and a dTm [24] of 1.11 K. For the same compound, the dTm [25] was -12.38 K, the dTm [26] was 7.43 K and the dTm [27] was 7.16 K. For the same compound, the dTm [28] was -0.97 K, the dTm [29] was 0.61 K and the dTm [30] was -0.14 K. The dTm [31] was 0.47 K, the dTm [32] was 0.53 K and the dTm [33] was 0.73 K. The dTm [34] was -7.02 K and the dTm [35] was 0.46 K.
